According to PubChem BioAssay AID504523 (Broad Institute, 2011):
Only a part is listed here, and it is no random draw. Active and inactive are the calls of the source. Rule as the data show it: active = inhibition above about 12%; inconclusive = no clear call, values can overlap the other calls; inactive = below about 7.3%.

The chains behind the UniProt entries cited, without tags or fusion partners.
UniProt Q14145, whole entry, looked up: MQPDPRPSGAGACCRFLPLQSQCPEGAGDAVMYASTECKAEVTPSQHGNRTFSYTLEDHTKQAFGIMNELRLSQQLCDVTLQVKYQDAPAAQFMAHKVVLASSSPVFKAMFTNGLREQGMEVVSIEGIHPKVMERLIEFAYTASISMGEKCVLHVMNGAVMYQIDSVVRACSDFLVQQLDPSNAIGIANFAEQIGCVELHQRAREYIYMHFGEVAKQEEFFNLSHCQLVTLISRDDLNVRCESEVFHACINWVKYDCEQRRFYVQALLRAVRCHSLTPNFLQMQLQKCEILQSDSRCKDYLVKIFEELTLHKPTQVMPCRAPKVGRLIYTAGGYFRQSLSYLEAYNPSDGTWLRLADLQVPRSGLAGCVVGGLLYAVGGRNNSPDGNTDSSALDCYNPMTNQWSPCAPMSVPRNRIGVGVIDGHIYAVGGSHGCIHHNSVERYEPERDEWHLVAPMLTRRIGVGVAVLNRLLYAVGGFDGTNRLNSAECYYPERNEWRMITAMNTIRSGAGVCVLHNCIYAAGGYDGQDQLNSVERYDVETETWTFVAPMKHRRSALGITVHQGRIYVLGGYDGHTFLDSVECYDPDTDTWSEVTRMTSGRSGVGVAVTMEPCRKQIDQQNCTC

These molecules were tested against Kelch-like ECH-associated protein 1 (Homo sapiens) (UniProt Q14145) (assay: Keap1-Nrf2 protein-protein interaction inhibitors, primary screen, biochemical, fluorescence polarization, single point (AID 504523;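 also: human Keap1 Kelch domain with fluorescein labeled Nrf2 9mer peptide probe; 0% = neutral control wells and 100% = peptide positive control; higher means more block of Keap1 binding to Nrf2 peptide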)). Conditions: Keap1 Kelch-Nrf2 peptide fluorescence polarization, 1536-well; at 9.4 µM; hits give high values.
In the case of `CCOP(=O)(Nc1cccc2ccccc12)OCC`, the inhibition is reported as inactive: 0.18%.
`COc1cc(C2NCCC3(OCCO3)C2(C)C)cc(OC)c1OC` (stereo unspecified) was tested, and the inhibition was inactive: -4.53%.
With `CCCOP(=S)(Nc1nc(N)cc(=O)[nH]1)OCCC` the inhibition was inactive: -2.93%.
`Nc1cccc2c([As](=O)(O)O)cccc12` was tested, and the inhibition was inactive: -0.484%.
In the case of `Cc1ccc(NCCc2c([N+](=O)[O-])cc([N+](=O)[O-])cc2[N+](=O)[O-])cc1`, the inhibition is reported as inactive: -1.59%.
`Cc1cccc(OCC(=O)OC2CN3CCC2CC3)c1` (stereo unspecified) was tested, and the inhibition was inactive: -2.73%.
With `O=[As](O)(c1cccc(O)c1)c1cccc(O)c1` the inhibition was inactive: -1.27%.
For `CS(=O)(=O)c1ccc(Cl)c(NC(=O)COC(=O)C(O)(c2ccccc2)c2ccccc2)c1`, the inhibition was inactive: 5.26%.
With `O=[As](O)(O)c1cccnc1` the inhibition was inactive: 0.717%.
For `COc1cc(C(=O)NCC2(N3CCOCC3)CCCCC2)cc(Cl)c1OC(C)C`, the inhibition was inactive: 3.02%.
`O=C(OC1CN2CCC1CC2)c1ccc(Cl)cc1` (stereo unspecified) was tested, and the inhibition was inactive: -0.687%.
For `CN(C(=O)Cc1ccc(Cl)c(Cl)c1)[C@H]1CC[C@@]2(CCCO2)C[C@@H]1N1CCCC1`, the inhibition was inactive: 3.55%.
`O=[N+]([O-])c1ccc2c(c1)nnn2O` was tested, and the inhibition was inactive: -6.98%.
`CN(C)C(=O)c1cc([N+](=O)[O-])cc2c1-c1c(cc([N+](=O)[O-])cc1[N+](=O)[O-])C2=O` was tested, and the inhibition was inactive: -3.24%.
For `CCOP1(=S)c2c(C)nn(CCC#N)c2N=C(c2ccc(F)cc2)N1C` (stereo unspecified), the inhibition was inactive: -2.54%.
For `CN(C(=O)Cc1ccccc1)[C@@H]1CC[C@]2(CCCO2)C[C@H]1N1CCCC1`, the inhibition was inactive: -15%.
For `N#CCCN(C(=O)COC(=O)C(O)(c1ccccc1)c1ccccc1)c1ccc(F)cc1`, the inhibition was inactive: 0.9%.
With `NC(=O)Nc1ccc([As](=O)(O)O)cc1` the inhibition was inactive: -4.35%.
In the case of `O=C(O)COc1ccc([As](=O)(O)O)cc1[N+](=O)[O-]`, the inhibition is reported as inactive: -4.73%.
With `Nc1ccccc1[As](=O)(O)c1ccccc1` the inhibition was inactive: 0.499%.
With `CS(=O)(=O)c1cc([N+](=O)[O-])c2no[n+]([O-])c2c1` the inhibition was inactive: 3.97%.
`O=P(Nc1nccs1)(Oc1ccccc1)Oc1ccccc1` was tested, and the inhibition was inactive: 2.43%.
With `O=P(Nc1nccs1)(c1ccccc1)c1nc2ccccc2s1` (stereo unspecified) the inhibition was inactive: 0.514%.
For `CCOP1(=S)c2c(C)nn(CCC#N)c2N=C(c2ccccc2F)N1C` (stereo unspecified), the inhibition was inactive: -2.81%.
For `O=[As](O)(c1cccs1)c1cccs1`, the inhibition was inactive: -1.33%.
With `Cc1ccc(OCC(=O)OC2CN3CCC2CC3)cc1` (stereo unspecified) the inhibition was inactive: -0.111%.
`NS(=O)(=O)c1cccc(NC(=O)COC(=O)C(O)(c2ccccc2)c2ccccc2)c1` was tested, and the inhibition was inactive: 0.477%.
`O=P1(Nc2ccc(Br)cn2)COc2ccccc2OC1` was tested, and the inhibition was inactive: 0.355%.
For `Nc1cccc([As](=O)(O)c2ccccc2)c1`, the inhibition was inactive: 3.83%.
`O=P1(Nc2ncccn2)COc2ccccc2OC1` was tested, and the inhibition was inactive: -3.75%.
`CCCC1OP(=O)(Nc2ccccc2)OCC1CC` (stereo unspecified) was tested, and the inhibition was inactive: 2.49%.
For `O=C(/C=C/c1ccccc1)OC1CN2CCC1CC2` (stereo unspecified), the inhibition was inactive: -3.7%.
For `CN(C)C1(CNC(=O)c2ccc(S(C)(=O)=O)cc2)CCCCC1`, the inhibition was inactive: 6.92%.
For `Cc1ccc(C(=O)OC2CN3CCC2CC3)cc1` (stereo unspecified), the inhibition was inactive: 0.587%.
With `CC1CCC(C(C)C)C(OP(=O)(Nc2ccccn2)c2ccccc2)C1` (stereo unspecified) the inhibition was inactive: -1.12%.
For `Cc1nn(-c2ccccc2)c2c1P(=O)(N1CCOCC1)N(C)C(c1ccccc1)=N2` (stereo unspecified), the inhibition was inactive: 1.72%.
In the case of `CC1(CBr)Cn2c(nc3ccccc3c2=O)S1` (stereo unspecified), the inhibition is reported as inactive: -3.11%.
In the case of `CN(C(=O)Cc1ccc(Cl)c(Cl)c1)[C@@H]1CCCC[C@H]1N1CCCC1`, the inhibition is reported as inactive: -7.87%.
`CC(C)/C=N\N=C(\N)N[N+](=O)[O-]` was tested, and the inhibition was inactive: -4.39%.
For `CC(C)(C)C(=O)NC(Sc1ncccn1)C(Cl)(Cl)Cl` (stereo unspecified), the inhibition was inactive: -1.76%.
`Clc1n[nH]nc1-c1nn[nH][15n]1` was tested, and the inhibition was inactive: -4.37%.
In the case of `CCOP(=O)(Nc1ccc(C)cn1)OCC`, the inhibition is reported as inactive: -7.02%.
For `CCOP(=O)(NC(=NC(C)c1ccccc1)NC(C)c1ccccc1)OCC` (stereo unspecified), the inhibition was inactive: -0.379%.
With `CCC1=CC2Cc3nc4ccc(Cl)cc4c(N)c3C(C1)C2` (stereo unspecified) the inhibition was inactive: -2.79%.
With `O=P1(Nc2ccccn2)COc2ccccc2OC1` the inhibition was inactive: 3.73%.
For `CCC(C)N(CC(C)C)C(=S)SC(NC(C)=O)C(Cl)(Cl)Cl` (stereo unspecified), the inhibition was inactive: -0.342%.
In the case of `CCOC(=O)c1ccc(NC(=O)C(C)(CCl)SC)cc1` (stereo unspecified), the inhibition is reported as inactive: -2.97%.
In the case of `O=C(OC1CN2CCC1CC2)c1cccc([N+](=O)[O-])c1` (stereo unspecified), the inhibition is reported as inactive: -2.37%.
In the case of `O=C(Nc1ccncc1[N+](=O)[O-])c1ccc([N+](=O)[O-])cc1[N+](=O)[O-]`, the inhibition is reported as inactive: -0.211%.
For `O=C(COc1ccccc1)OC1CN2CCC1CC2` (stereo unspecified), the inhibition was inactive: -5.12%.
With `COP1(=S)c2c(C)nn(CCC#N)c2N=C(c2ccc(F)cc2)N1C` (stereo unspecified) the inhibition was inactive: -3.6%.
In the case of `O=[N+]([O-])c1ccc(Nc2ccc(Oc3ccc([N+](=O)[O-])cc3[N+](=O)[O-])cc2)c([N+](=O)[O-])c1`, the inhibition is reported as inactive: -1.57%.
`Cc1cc(SC(NC=O)C(Cl)(Cl)Cl)ncn1` (stereo unspecified) was tested, and the inhibition was inactive: -4.07%.
With `O=P(Nc1ccccn1)(c1cccc2ccccc12)c1cccc2ccccc12` the inhibition was inactive: 1.82%.
For `CCOC(=O)Nc1cccc([As](=O)(O)O)c1`, the inhibition was inactive: 0.329%.
For `Cc1cc(SC(NC(=O)c2ccccc2)C(Cl)(Cl)Cl)nc(C(C)C)n1` (stereo unspecified), the inhibition was inactive: -6.9%.
For `CCCCOc1ccc(C(=O)NCC2(N3CCCCC3)CCCCC2)cc1OC`, the inhibition was inactive: -2.75%.
For `CC1CCNP(=O)(N(CCCl)CCCl)O1` (stereo unspecified), the inhibition was inactive: -0.999%.
With `CCOC(=O)Nc1ccc([As](=O)(O)O)c(O)c1` the inhibition was inactive: -0.339%.
In the case of `O=[N+]([O-])c1cc([N+](=O)[O-])c(-c2ccn[nH]2)s1`, the inhibition is reported as inactive: 4.12%.
For `CC(C)NC(=O)NP(=O)(Oc1ccccc1)Oc1ccccc1`, the inhibition was inactive: 2.71%.
`O=C(OC1CN2CCC1CC2)c1cccc2[nH]cnc12` (stereo unspecified) was tested, and the inhibition was inactive: 3.18%.
With `CCN(CC)C(=S)SC(NC=O)C(Cl)(Cl)Cl` (stereo unspecified) the inhibition was inactive: -1.87%.
`COC(=O)C1(C)COP(=O)(N2CCCCCC2)OC1` (stereo unspecified) was tested, and the inhibition was inactive: -1.47%.
For `CC(C)c1ccc(OP(=O)(Nc2ccccn2)Oc2ccccc2F)cc1` (stereo unspecified), the inhibition was inactive: 5.72%.
In the case of `ClCCSc1nnc(-c2cccnc2)o1`, the inhibition is reported as inactive: -1.85%.
With `Cc1ccc2nc3c(c(C)c2c1)CC(C(Cl)Cl)S3` (stereo unspecified) the inhibition was inactive: -1.09%.
In the case of `Cc1ccc(OP(=O)(Nc2ccc([N+](=O)[O-])cn2)Oc2ccc(C)cc2)cc1`, the inhibition is reported as inactive: -1.39%.
For `O=[N+]([O-])c1ccc(-c2cc([N+](=O)[O-])c(O)c([N+](=O)[O-])c2)cc1`, the inhibition was inactive: -4.07%.
With `COc1cc(C(=O)NCC2(N3CCOCC3)CCCCC2)ccc1OCC(C)C` the inhibition was inactive: -1.59%.
In the case of `C[As](=O)(O)c1cccc(C(=O)O)c1`, the inhibition is reported as inactive: -4.42%.
For `O=[As](O)(c1ccc(O)cc1)c1ccccc1O`, the inhibition was inactive: -0.501%.
In the case of `COc1ccc(N/C(=N/P(=O)(N2CCOCC2)N2CCOCC2)N2CCOCC2)cc1`, the inhibition is reported as inactive: -5.45%.
With `O=[N+]([O-])c1cc(Oc2ccc([N+](=O)[O-])cc2C(F)(F)F)cc([N+](=O)[O-])c1` the inhibition was inactive: 3.6%.
In the case of `COc1cc(I)ccc1[As](=O)(O)O`, the inhibition is reported as inactive: 1.98%.
In the case of `COc1ccc2nc(NP(=O)(c3ccccc3)c3ccccc3)sc2c1`, the inhibition is reported as inactive: -0.813%.
With `O=P1(N(CCCl)CCCl)OCCCN1CCCl` (stereo unspecified) the inhibition was inactive: -3.11%.
For `O=P1(N(CCCl)CCCl)Nc2ccccc2N1`, the inhibition was inactive: -3.66%.
With `Cc1cc(=O)[nH]c(N[N+](=O)[O-])n1` the inhibition was inactive: -6.98%.
With `O=C(OC1CN2CCC1CC2)C12CC3CC(CC(C3)C1)C2` (stereo unspecified) the inhibition was inactive: -1.44%.
`Cc1c2c(nc3ccccc13)SC(C(Cl)Cl)C2` (stereo unspecified) was tested, and the inhibition was inactive: 2.02%.
With `Nc1cc(N)c2nonc2c1[N+](=O)[O-]` the inhibition was inactive: 2.55%.
In the case of `CC(C)CC(=O)NC(Sc1ccc(Cl)cc1)C(Cl)(Cl)Cl` (stereo unspecified), the inhibition is reported as inactive: 1.31%.
For `O=C(NC(Sc1ccncn1)C(Cl)(Cl)Cl)c1ccccc1` (stereo unspecified), the inhibition was inactive: 3.57%.
In the case of `Oc1ccccc1CNc1ccccn1`, the inhibition is reported as inactive: 0.899%.
`COc1ccccc1OP(=O)(Nc1ccc(C)cn1)Oc1ccccc1OC` was tested, and the inhibition was inactive: -0.759%.
`CN1CCCC(OC(=O)C(c2ccccc2)c2ccccc2)C1` (stereo unspecified) was tested, and the inhibition was inactive: -6.68%.
For `Clc1ccc(Cl)c(NC2=NCC(CBr)S2)c1` (stereo unspecified), the inhibition was inactive: -3.65%.
In the case of `NC(=O)c1cc([N+](=O)[O-])cc([N+](=O)[O-])c1N`, the inhibition is reported as inactive: -4.63%.
For `Cc1ccc(N/C(=N/P(=O)(N2CCOCC2)N2CCOCC2)N2CCOCC2)cc1`, the inhibition was inactive: -5.51%.
With `CN(C(=O)Cc1ccc(Cl)c(Cl)c1)[C@H]1CCCC[C@H]1N1CCCC1` the inhibition was inactive: -2.3%.
With `CCN(N=Nc1nonc1N)c1nonc1N` the inhibition was inactive: 3.43%.
In the case of `Nc1cccc2ccc([As](=O)(O)O)cc12`, the inhibition is reported as inactive: -1.34%.
For `CN(C(=O)Cc1ccc(Cl)c(Cl)c1)[C@H]1CCCC[C@@H]1N1CCCC1`, the inhibition was inactive: -2.74%.
`Cc1ccc(NP(=O)(Oc2ccccc2F)Oc2ccccc2F)nc1` was tested, and the inhibition was inactive: -5.4%.
With `Cc1cc(SC(NC(=O)c2ccc(F)cc2)C(Cl)(Cl)Cl)ncn1` (stereo unspecified) the inhibition was inactive: -1.13%.
With `CCOP(=O)(Nc1ccccc1)OCC` the inhibition was inactive: -4.59%.
For `CCCC1OP(N)(=O)OCC1CC` (stereo unspecified), the inhibition was inactive: -0.995%.
With `CC(=O)Nc1ccc([As](=O)(O)O)cc1` the inhibition was inactive: 0.322%.
With `O=C(O)c1ccccc1[As](=O)(O)O` the inhibition was inactive: -6.39%.
`O=P(Nc1nc2ccc(Cl)cc2s1)(c1ccccc1)c1ccccc1` was tested, and the inhibition was inactive: -1.1%.
